Here are results for one compound from patent publication US20250339549A1, “METHODS FOR THE DETECTION AND TREATMENT OF NON-SMALL-CELL LUNG CANCER” (Board of Regents, The University of Texas System, priority 2022, published 2025).

For assay [1], the system named is HCC827 and PC9 cells. The assay is described as follows: Flow cytometry-based cell cycle analysis. Details: species or system human. The conditions noted are these: 30 nM. Background: A flow cytometer gives signals particle by particle.
For assay [2], the system named is HCC827 and PC9 cells. The conditions noted are these: 100 nM.
A further assay has as its system ALPP. The assay is described as follows: ALPP expression in cancer cell lines after drug treatment (immunoblot, immunofluorescence, flow cytometry, qPCR, surface proteomics). It counts as cell-based, human. The conditions noted are these: EGFR TKI treatment (FIG. 7D, FIG. 15B: 30 nM, 48 hours). An excerpt:
ALPP and ALPPL2 expression analysis in whole cell extracts and in the surfaceome compartment was done by mass spectrometry as previously described^19-23. Each dataset was normalized to the total number of spectral counts for each compartment^24.
Images were acquired in z-series on a spinning-disk confocal system.
Probe for ALPP was purchased from Thermo Fisher Scientific (Hs03046558_s1).

On to `COc1cc2ncnc(Nc3ccc(F)c(Cl)c3)c2cc1OCCCN1CCOCC1` [gefitinib], for which the “cell cycle arrest in G0/G1” value in the assay with HCC827 and PC9 cells [1] is “statistically significantly increased cell cycle arrest in G0/G1”. The “emergence of drug-resistant clones under continuous TKI treatment” value in the assay with HCC827 and PC9 cells [2] is listed as “led to the emergence of drug-resistant clones”. The “fold increase in ALPP expression” value in the assay with ALPP (HCC827 cells) is recorded as about 60 fold; with ALPP (PC9 cells) it was about 110 fold.
